Binding of CDR-mutated scFvs to a peptide of the spike HR2 region

Antigen: PDVDLGDISGINAS, a 14-residue peptide of the SARS-CoV-2 spike HR2 region.

Each scFv is VH, a 15-residue (Gly4Ser)3 linker, VL, as in the parent Ab-95, and differs from it in the CDRs of the light chain only.
VH: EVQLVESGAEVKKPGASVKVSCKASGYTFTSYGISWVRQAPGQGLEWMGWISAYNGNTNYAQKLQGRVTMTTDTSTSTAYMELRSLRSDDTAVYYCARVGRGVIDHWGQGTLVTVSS
VL: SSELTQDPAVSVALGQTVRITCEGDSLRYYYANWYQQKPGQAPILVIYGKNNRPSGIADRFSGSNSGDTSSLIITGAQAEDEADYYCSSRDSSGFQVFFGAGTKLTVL

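Library AAYL52 holds single substitutions and randomly drawn double and triple substitutions in the CDRs. AlphaSeq pools MATa yeast showing the antibodies with MATalpha yeast showing the peptide. Binding brings cells together so that they mate, and sequencing counts the barcode pairs among the diploids. A regression on co-assayed BCL2-family reference pairs converts the normalised counts of each replicate to an apparent Kd. There are three technical replicates.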

The parent's light chain CDRs are EGDSLRYYYAN, GKNNRPS, SSRDSSGFQVF; each variant's own CDRs replace them letter for letter.
Scale: log10 of Kd in nM, estimated from mating counts; low values are strong binders.
Replicates are averaged; those with no signal do not enter the mean.
"not detected" means that the variant was in the library but no mating with the target was seen in any replicate; the authors take this as a sign of poor binding, and no number exists.
Three control strains display no target. For library AAYL52, 28% of the pairings with them gave a signal, with a median of 3.91 and one signal in twenty below 2.90, so weak values seen in few replicates may be background.

mean, log10 nM | detected | CDR-L1 | CDR-L2 | CDR-L3
not detected | 0/3 | EGDSERYYYAN | GKNNRRS | SSRDSWGFQVF
2.19 | 3/3 | EGDSLRYYYAN | GKNTRPS | PSRDSSGFEVF
not detected | 0/3 | EGDSLRYYYIN | GKNNRYT | SSRDSSGFQVF
not detected | 0/3 | NGDSLRYYYAN | GKNNRPS | SSRDSSMFKVF
not detected | 0/3 | EGDSLRYYYAL | TKNNRPS | SSRDSIGFQVF
4.66 | 3/3 | EGDSLRYYYAR | GKTNRPS | SSRDSWGFQVF
2.44 | 3/3 | EGDSLRYYYAN | GKNNRPS | SSRDESGFFVR
1.46 | 3/3 | AGASLRYKYAN | GKNNRPS | SSRDSSGFQVF
2.55 | 3/3 | EGDSLRYYKAN | GKNNRPS | SSRDSSGFQRF
4.44 | 1/3 | EGDSLRYYYHN | GKNNRPS | SSRDASGFQVT
5.18 | 2/3 | EGDSLRYYYAN | GQYNRPS | SYRDSSGFQVF
4.18 | 2/3 | EGDLLRYYYAN | GKNNRPS | SSYDSSGMQVF
5.12 | 1/3 | EGDSARYYYAN | MKNNDPS | SSRDSSGFQVF
4.47 | 1/3 | EGDSLRYYYAT | GKNNRSS | SSRDSSGWQVF
2.53 | 3/3 | EGDSLRYYNAN | GMNNRPS | SSWDSSGFQVF
2.57 | 3/3 | EDDSLFYHYAN | GKNNRPS | SSRDSSGFQVF
not detected | 0/3 | EGDSLRYYYAN | GKNNRFS | SHRDSSGSQVF
3.00 | 3/3 | EGDSLRYYYAN | GKNNIPQ | SSRDSSGAQVF
not detected | 0/3 | EGNSLRYYYAN | GKNNRFS | SSRDSSCFQVF
3.07 | 3/3 | EGDSLRYYYNN | GKGNRPI | SSRDSSGFQVF
5.28 | 1/3 | EGDSLRYYYAT | GKNNRCS | SSEDSSGFQVF
3.50 | 3/3 | EGDSLRFYYAN | GKNNLPS | SSPDSSGFQVF
not detected | 0/3 | EGQSLRYYYAN | GKNNRPS | SSRDSSGGQLF
not detected | 0/3 | EGDSLRYYYAN | MKNNQPS | SSRDSSGFQPF
2.66 | 3/3 | EGDSLLFYYAN | GKNNRPV | SSRDSSGFQVF
3.28 | 2/3 | EGSSLRYYYAN | GKNNLPS | SSLDSSGFQVF
3.87 | 3/3 | EGSSFRYYYAN | GKNNRPS | SSRDSSGFQWF
not detected | 0/3 | EGDSLRYYYAN | GKNNRPS | VSRDSSSFQVI
2.37 | 3/3 | EGDSLRPYYAN | GKNNRPS | SQRDSSGFQVF
2.54 | 3/3 | EGDSLLYYYAN | GKNNRPS | SSRDSSGFQQE
3.03 | 2/3 | EGDSLRYYIAN | GKNNRPS | SSRVSKGFQVF
3.45 | 2/3 | EGDWLHYYYAN | GKSNRPS | SSRDSSGFQVF
4.13 | 3/3 | EYHSLRYYYAN | GKNIRPS | SSRDSSGFQVF
not detected | 0/3 | EGDSLRYYYAN | MKNRRPS | SSNDSSGFQVF
3.94 | 3/3 | EGDSLKYYYAN | GKNNRPS | SSRDSSMFQVP
3.58 | 1/3 | EENSLRYYYAN | GKNNRPS | SSRDGSGFQVF
2.77 | 3/3 | EGDSLRYYYAN | GKNNRPS | TSRDSTGKQVF
4.04 | 2/3 | ETDSLRYYYAN | GKNTRPS | SSRDSRGFQVF
3.20 | 1/3 | EGDSLRYYYAN | LKNVRPS | SSRDSVGFQVF
3.14 | 3/3 | EGDSLRYYNAP | GRNNRPS | SSRDSSGFQVF
1.42 | 3/3 | EGDSLRYYSAN | GKNNRPS | SSRDSSKFWVF
3.06 | 3/3 | EGQSLRYYRAN | GKNNRPS | SSRDSSGFQVH
3.97 | 2/3 | EGDSHRYYYAT | QKNNRPS | SSRDSSGFQVF
3.57 | 2/3 | EGDWLRWYYAN | GKNNRPS | SSRDSSGFAVF
2.37 | 3/3 | EGDSLGYYSAN | GKYNRPS | SSRDSSGFQVF
5.20 | 2/3 | EYDSLRYYYAN | GKNNRPS | SSRDFNGFQVF
3.78 | 2/3 | EGQSARYYYAN | WKNNRPS | SSRDSSGFQVF
4.25 | 2/3 | EGDWARYYYAN | GKNNRPS | SSRDSSGFLVF
3.78 | 2/3 | EGDSLRYYYAN | YKNNRRS | SSRDSSGPQVF
3.09 | 3/3 | EGDSLREYYAN | GKNNRPS | SSRDSGIFQVF
not detected | 0/3 | EGDSLRYYYAI | GKNNRPS | SQRDSNGFQVF
3.90 | 3/3 | EGCSLRYYYAN | GKWNRPS | SARDSSGFQVF
4.08 | 1/3 | CGDSLRYYIAN | RKNNRPS | SSRDSSGFQVF
3.07 | 1/3 | EGDSLRYYYAN | GKQNRPS | ASRDSSGFQVN
4.28 | 2/3 | EGDSLRYYYYN | GKNSRPS | SSRGSSGFQVF
2.75 | 3/3 | EYDWLRYYYAN | GKNNRPS | SSRDSSIFQVF
3.03 | 3/3 | EGDKLPYYYAN | GKNNRPS | SSRDSSGFQCF
4.46 | 2/3 | EGDSLRYYYAN | FTNNRPS | SKRDSSGFQVF
3.45 | 1/3 | EGDSLRWYYAN | VKNTRPS | SSRDSSGFQVF
3.78 | 3/3 | EGDSLAYYYAN | GKNNRPS | GSRDSSGSQVF
not detected | 0/3 | EGDSLRYYYAN | GKNNRPS | SSRDLSGFIVF
3.48 | 3/3 | EGDSFRYYYAN | GKNNRPS | SSRDSTGFPVF
4.97 | 2/3 | EGDSLRIYYAN | HYNNRPS | SSRDSSGFQVF
1.98 | 3/3 | EGDSLLYYEAN | GKNNRPS | TSRDSSGFQVF
2.19 | 3/3 | EGNSLRYYYAN | GKNNRPS | SSRASSGAQVF
3.81 | 3/3 | EGDSLRYYYAN | GKNNRPS | SSRDSVGFCVL
4.19 | 1/3 | EGDSLRYYYAN | GCNNRTS | SSRDHSGFQVF
not detected | 0/3 | EGDSPRYYCHN | GKNNRPS | SSRDSSGFQVF
3.84 | 1/3 | EGDSLRYYYMN | GKNNFPS | STRDSSGFQVF

From the list, the first 4 with no signal in any replicate:

{"CDR-L1": "EGDSERYYYAN", "CDR-L2": "GKNNRRS", "CDR-L3": "SSRDSWGFQVF", "mean, log10 nM": "not detected", "detected": "0/3"}
{"CDR-L1": "EGDSLRYYYIN", "CDR-L2": "GKNNRYT", "CDR-L3": "SSRDSSGFQVF", "mean, log10 nM": "not detected", "detected": "0/3"}
{"CDR-L1": "NGDSLRYYYAN", "CDR-L2": "GKNNRPS", "CDR-L3": "SSRDSSMFKVF", "mean, log10 nM": "not detected", "detected": "0/3"}
{"CDR-L1": "EGDSLRYYYAL", "CDR-L2": "TKNNRPS", "CDR-L3": "SSRDSIGFQVF", "mean, log10 nM": "not detected", "detected": "0/3"}

Reference: Engelhart et al. 2022, doi:10.1038/s41597-022-01779-4. File: FLAb, binding data.